Values joined by “and” are separate entries in the source; they are usually repeats but may differ in a detail not shown here. Equal values may be shown once.

The assay relates to tdTomato expressing T. cruzi (CL strain). The assay is described as follows: Rapid in vivo assay: footpad infection, single oral dose, fluorescence imaging 2 and 4 dpi (proliferation index). Further details: species or system C57BL/6 mice. The following applies: Fig. 3a; individual footpads. As for the experimental part:
C57BL/6 mice were injected in the hind footpads with 2.5x10^5 tdTomato expressing T. cruzi (CL strain) and orally treated with a single dose of the compounds (50 mg/kg) at 2 dpi. Fluorescent intensity of the feet was measured at 2 dpi before compound administration and at 4 dpi in the Maestro in vivo imaging system equipped with the software Maestro 2.1.0 (CRi) as previously described. The proliferation index was estimated as PI=[(T4d – T2d)/(mUnt4d-mUnt2d)]*100; where T4d and T2d are the fluorescence intensity of the feet of the treated animals at days 4 and 2 post-infection respectively; mUnt4d and mUnt2d are the average fluorescence intensity of the feet of the untreated animals at 4 and 2 dpi respectively.

With `Cc1c(C(=O)N[C@H](C(=O)OCC2CCOCC2)C(C)C)ccc2c1B(O)OC2` [AN15368], the “Parasite proliferation index of footpads infected with tdTomato-expressing T. cruzi” value was -34.4 and -61.2 and 16.3 and -0.5 and -23.3 and -8.5 and 9.6 and -13.5 and -3.4 and 18.2.

The values are drawn from paper PMC9519446, “Discovery of an Orally Active Benzoxaborole Prodrug Effective in the Treatment of Chagas Disease in Non-human Primates” (Nature microbiology, 2022).
